Reference: patent US5602102A, “Dipeptidyl peptidase-I inhibitors and uses thereof” (Board of Regents, The Univ. of TX System, priority 1992, dated 1997)

Columns and labels:
[1] = molecular target: human cathepsin G, mature enzymatically active form (human) (UniProt P08311); assay: adsorption of 3H-isoleucine labelled control U-937 cell extract to aprotinin-agarose; cathepsin G counted after immunoadsorption
[2] = molecular target: propeptide-bearing form of human cathepsin G (human) (UniProt P08311); assay: adsorption of 3H-isoleucine labelled extract of U-937 cells cultured with Gly-Phe-CHN2 to aprotinin-agarose; cathepsin G counted after immunoadsorption

Row | aprotinin-agarose bound cpm [1] [cpm] | aprotinin-agarose bound, % of total cathepsin G-immunoreactive cpm [1] [%] | aprotinin-agarose unbound cpm [1] [cpm] | aprotinin-agarose unbound, % of total cathepsin G-immunoreactive cpm [1] [%] | aprotinin-agarose bound cpm [2] [cpm] | aprotinin-agarose bound, % of total cathepsin G-immunoreactive cpm [2] [%] | aprotinin-agarose unbound cpm [2] [cpm] | aprotinin-agarose unbound, % of total cathepsin G-immunoreactive cpm [2] [%] | Substance
1 | 22900 | 48 | 24400 | 52 |  |  |  |  | aprotinin-agarose (from UniProt P00974) (other; other documents disagree on this pair)
2 |  |  |  |  | 2380 | 4 | 57300 | 96 | aprotinin-agarose (from UniProt P00974)
